Data taken from US20040106557A1 (LICENTIA, published 2004).

Sequences of proteins named here, by UniProt entry; tags and fusion partners are left off. Residues count along the entry.
UniProt P07288, 25-261: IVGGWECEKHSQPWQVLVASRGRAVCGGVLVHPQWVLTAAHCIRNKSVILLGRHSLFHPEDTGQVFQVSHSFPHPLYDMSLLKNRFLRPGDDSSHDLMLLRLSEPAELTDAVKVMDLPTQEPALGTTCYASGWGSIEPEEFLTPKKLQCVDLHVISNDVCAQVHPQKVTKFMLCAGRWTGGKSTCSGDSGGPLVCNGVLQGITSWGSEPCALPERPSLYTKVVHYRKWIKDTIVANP

Target: T1, Prostate specific antigen (PSA), purified from human seminal fluid (human, UniProt P07288)
T1 construct: mature; Mostly captured on wells by MAb 5E4 (IFMA) or on the chip by MAb H117 (SPR); in solution in enzyme assays; also called free PSA; active PSA
Assay: GST-peptide IFMA, PSA captured by MAb 5E4
Experimental: The binding of individual phage clones to PSA was tested by IFMA (phage IFMA). In the phage IFMA, about 30 ng of PSA was added to MAb 5E4 coated wells for 1 h. After washing (Buffer: 150 mM NaCl, 7.7 mM NaN₃, 0.2 g/L Tween 20), 15 mL of phage and 200 μl assay buffer was added. After incubation for 1 h, the wells were washed and filled with 200 μl of assay buffer containing 50 ng europium-labeled anti phage monoclonal antibody recognizing the M13 coat protein of the phage. After incubation for 60 min, the wells were washed 4 times, and enhancement solution (EG&G-Wallac) was added. The fluorescence was quantified with a 1234 DELFIA Research fluorometer (EG&G-Wallac).
Binding of GST-peptide to PSA was determined by an IFMA (GST-peptide IFMA) similar to the one for phage peptides except that Eu³⁺-labeled antibody to GST was used. Various amounts of GST-peptide or wild type GST were added to wells containing captured PSA in 200 μL of assay buffer and incubated for 1 h. To test the effect of Zn²⁺ on the binding between GST-peptide and PSA, various concentrations of Zn²⁺ (1-200 μM) were added to the buffer in the incubation step of GST-peptide and PSA. […] After further incubation and washing the bound fluorescence was measured as described above. […] After capturing the various proteinases or PSA complexes, GST-peptide was added and binding was monitored as described above for the GST-peptide IFMA.

binding result: no binding
B1: Wild type GST (other, UniProt P08515 1-218, looked up)
chain: MSPILGYWKIKGLVQPTRLLLEYLEEKYEEHLYERDEGDKWRNKKFELGLEFPNLPYYIDGDVKLTQSMAIIRYIADKHNMLGGCPKERAEISMLEGAVLDIRYGVSRIAYSKDFETLKVDFLSKLPEMLKMFEDRLCHKTYLNGDHVTHPDFMLYDALDVVLYMDPMCLDAFPKLVCFKKRIEAIPQIDKYLKSSKYIAWPLQGWQATFGGGDHPPK
notes: Control; also called wild type glutathione S-transferase
